Source: BindingDB's records for PubMed 9686407 (Sri International, 1998)

Amino acid sequences for entries named in this document (tags omitted). A change or cut given only in a name is not applied to a line headed by its entry. Chains listed by the source or under a name are the forms on record and can include a tag or linker.
UniProt P35462, as listed by the source: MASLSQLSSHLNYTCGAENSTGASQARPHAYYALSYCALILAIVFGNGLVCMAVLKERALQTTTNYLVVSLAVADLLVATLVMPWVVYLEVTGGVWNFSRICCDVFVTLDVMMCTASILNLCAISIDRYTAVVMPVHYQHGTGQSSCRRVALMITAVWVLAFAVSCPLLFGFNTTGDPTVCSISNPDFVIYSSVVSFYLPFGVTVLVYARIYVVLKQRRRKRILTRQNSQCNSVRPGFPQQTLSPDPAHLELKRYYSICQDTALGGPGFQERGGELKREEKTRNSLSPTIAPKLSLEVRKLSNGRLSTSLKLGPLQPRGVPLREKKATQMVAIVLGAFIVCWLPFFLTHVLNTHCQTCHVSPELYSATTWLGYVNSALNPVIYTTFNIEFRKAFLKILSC
UniProt P21728, whole entry: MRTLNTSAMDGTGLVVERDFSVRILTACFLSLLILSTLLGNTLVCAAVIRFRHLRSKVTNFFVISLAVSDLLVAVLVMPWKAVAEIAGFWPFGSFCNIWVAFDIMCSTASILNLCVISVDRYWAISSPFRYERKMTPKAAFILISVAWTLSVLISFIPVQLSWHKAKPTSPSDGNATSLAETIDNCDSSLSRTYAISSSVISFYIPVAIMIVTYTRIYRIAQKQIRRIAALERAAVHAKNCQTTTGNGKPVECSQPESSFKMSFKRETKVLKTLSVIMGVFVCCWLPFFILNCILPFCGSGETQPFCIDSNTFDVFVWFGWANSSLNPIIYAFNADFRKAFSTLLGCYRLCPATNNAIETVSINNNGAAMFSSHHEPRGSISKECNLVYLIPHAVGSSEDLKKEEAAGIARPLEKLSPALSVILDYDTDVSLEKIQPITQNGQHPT
UniProt P41145: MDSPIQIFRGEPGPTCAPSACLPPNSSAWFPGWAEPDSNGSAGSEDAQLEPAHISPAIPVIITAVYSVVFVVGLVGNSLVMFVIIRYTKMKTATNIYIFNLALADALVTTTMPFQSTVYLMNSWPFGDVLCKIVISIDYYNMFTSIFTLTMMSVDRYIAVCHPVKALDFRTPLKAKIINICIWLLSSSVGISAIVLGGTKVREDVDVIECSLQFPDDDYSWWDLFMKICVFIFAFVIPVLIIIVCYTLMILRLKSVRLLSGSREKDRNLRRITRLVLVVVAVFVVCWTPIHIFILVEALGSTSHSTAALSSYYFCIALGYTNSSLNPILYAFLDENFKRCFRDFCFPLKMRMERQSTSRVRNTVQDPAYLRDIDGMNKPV
UniProt P35372, whole entry: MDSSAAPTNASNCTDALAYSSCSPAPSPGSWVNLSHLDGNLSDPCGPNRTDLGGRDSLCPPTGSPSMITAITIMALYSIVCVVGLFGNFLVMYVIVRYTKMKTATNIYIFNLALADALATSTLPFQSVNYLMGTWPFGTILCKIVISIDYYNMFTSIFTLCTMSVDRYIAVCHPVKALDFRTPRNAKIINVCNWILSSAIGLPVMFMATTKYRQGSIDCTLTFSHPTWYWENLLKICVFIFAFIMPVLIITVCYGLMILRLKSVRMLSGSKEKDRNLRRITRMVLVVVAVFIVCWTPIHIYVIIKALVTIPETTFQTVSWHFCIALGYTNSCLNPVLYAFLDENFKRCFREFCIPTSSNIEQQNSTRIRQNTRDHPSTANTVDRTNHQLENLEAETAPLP
UniProt P41143, whole entry: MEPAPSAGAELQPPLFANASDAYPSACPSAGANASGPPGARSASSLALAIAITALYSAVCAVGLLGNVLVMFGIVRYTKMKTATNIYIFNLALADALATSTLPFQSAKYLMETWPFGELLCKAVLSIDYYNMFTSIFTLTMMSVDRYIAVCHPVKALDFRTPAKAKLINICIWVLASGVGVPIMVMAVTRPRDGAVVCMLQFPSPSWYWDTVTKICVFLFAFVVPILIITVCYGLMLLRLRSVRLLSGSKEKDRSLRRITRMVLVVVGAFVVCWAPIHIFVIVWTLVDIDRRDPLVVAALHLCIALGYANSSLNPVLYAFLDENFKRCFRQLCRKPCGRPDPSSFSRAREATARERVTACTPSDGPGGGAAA
UniProt P14842, whole entry: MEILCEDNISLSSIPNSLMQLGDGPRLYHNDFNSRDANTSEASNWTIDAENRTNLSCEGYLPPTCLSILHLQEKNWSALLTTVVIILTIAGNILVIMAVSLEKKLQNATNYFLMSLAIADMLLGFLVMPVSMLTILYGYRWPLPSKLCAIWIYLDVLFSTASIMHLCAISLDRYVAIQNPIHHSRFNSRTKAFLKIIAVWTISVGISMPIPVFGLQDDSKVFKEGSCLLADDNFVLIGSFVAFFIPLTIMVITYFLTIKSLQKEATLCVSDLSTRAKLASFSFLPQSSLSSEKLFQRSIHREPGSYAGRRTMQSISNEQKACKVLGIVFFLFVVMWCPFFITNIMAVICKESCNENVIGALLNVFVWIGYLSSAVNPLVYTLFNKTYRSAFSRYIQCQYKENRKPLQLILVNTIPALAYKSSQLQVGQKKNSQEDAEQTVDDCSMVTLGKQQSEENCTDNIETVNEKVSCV
UniProt P08908, whole entry: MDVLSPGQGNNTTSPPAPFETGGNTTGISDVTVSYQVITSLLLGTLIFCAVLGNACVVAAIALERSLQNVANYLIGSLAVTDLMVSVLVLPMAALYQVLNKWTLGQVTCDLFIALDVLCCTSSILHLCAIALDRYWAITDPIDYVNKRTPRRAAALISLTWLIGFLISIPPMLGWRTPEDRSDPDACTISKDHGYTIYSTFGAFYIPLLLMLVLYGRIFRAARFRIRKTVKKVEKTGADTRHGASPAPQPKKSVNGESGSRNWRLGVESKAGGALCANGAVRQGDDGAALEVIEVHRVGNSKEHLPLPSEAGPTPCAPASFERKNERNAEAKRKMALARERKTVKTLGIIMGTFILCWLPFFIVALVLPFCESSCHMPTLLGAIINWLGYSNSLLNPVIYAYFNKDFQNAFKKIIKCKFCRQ

Tests used:
[1] = target: D(3) dopamine receptor (Homo sapiens, UniProt P35462)
[2] = target: D(1A) dopamine receptor (Homo sapiens, UniProt P21728)
[3] = target: T1, 5-hydroxytryptamine receptor 2C (Rattus norvegicus, UniProt P08909)
T1 sequence (P08909 whole entry): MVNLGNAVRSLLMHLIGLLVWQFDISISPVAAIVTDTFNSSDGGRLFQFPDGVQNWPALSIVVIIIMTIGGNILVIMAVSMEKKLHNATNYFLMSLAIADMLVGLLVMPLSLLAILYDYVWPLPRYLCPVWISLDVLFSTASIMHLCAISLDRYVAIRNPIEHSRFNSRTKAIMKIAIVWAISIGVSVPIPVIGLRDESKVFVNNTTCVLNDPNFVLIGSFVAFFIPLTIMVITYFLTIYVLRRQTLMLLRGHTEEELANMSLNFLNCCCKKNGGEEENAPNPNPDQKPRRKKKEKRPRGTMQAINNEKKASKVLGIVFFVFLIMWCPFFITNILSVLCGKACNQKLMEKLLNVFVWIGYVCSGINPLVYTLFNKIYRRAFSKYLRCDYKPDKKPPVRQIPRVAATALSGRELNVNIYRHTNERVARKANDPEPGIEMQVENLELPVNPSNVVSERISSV

[4] = target: Kappa-type opioid receptor (Homo sapiens, UniProt P41145)
[5] = target: Mu-type opioid receptor (Homo sapiens, UniProt P35372)
[6] = target: Delta-type opioid receptor (Homo sapiens, UniProt P41143)
[7] = target: 5-hydroxytryptamine receptor 2A (Rattus norvegicus, UniProt P14842)
[8] = target: 5-hydroxytryptamine receptor 1A (Homo sapiens, UniProt P08908)

Structure (SMILES)	Ki [4]	Ki [5]	further results
CCN1CCCC1CNC(=O)c1cc(S(N)(=O)=O)ccc1OC (stereo not given) [N-[(1-ethylpyrrolidin-2-yl)methyl]-2-methoxy-5-sulfamoylbenzamide]	–	–	Ki [1]: 15 nM
OCCN1CCN(CC/C=C2/c3ccccc3Sc3ccc(C(F)(F)F)cc32)CC1 [(cis) 2-{4-[3-(2-Trifluoromethyl-thioxanthen-9-ylidene)-propyl]-piperazin-1-yl}-ethanol(Flupentixol)]	–	–	Ki [2]: 3 nM
CN1Cc2c(N)cccc2[C@H](c2ccccc2)C1 [(+/-)-2-Methyl-4-phenyl-1,2,3,4-tetrahydro-isoquinolin-8-ylamine]	–	–	Ki [3]: > 10000 nM
CC(C)C[C@@H](NC(=O)[C@H](Cc1ccccc1)NC(=O)CNC(=O)[C@@H](C)NC(=O)[C@@H](N)Cc1ccc(O)cc1)C(=O)O [[D-Ala2-D-Leu5]enkephalin]	> 10000 nM	1.8 nM	–
C=C1CCC2(O)C3Cc4ccc(O)c5c4C2(CCN3CC2CC2)C1O5 (stereo not given) [NSC_119501]	0.3 nM	–	Ki [6]: 7.3 nM
CC[C@H](C)[C@H](NC(=O)[C@H](CCCNC(=N)N)NC(=O)[C@H](CCCNC(=N)N)NC(=O)[C@H](CC(C)C)NC(=O)[C@H](Cc1ccccc1)NC(=O)CNC(=O)CNC(=O)[C@@H](N)Cc1ccc(O)cc1)C(=O)N[C@@H](CCCNC(=N)N)C(=O)N1CCC[C@H]1C(=O)N[C@@H](CCCCN)C(=O)N[C@@H](CC(C)C)C(=O)N[C@@H](CCCCN)C(=O)O [Dynorphin A (1-13)]	–	4.5 nM	–
NCCc1c[nH]c2ccc(O)cc12 [[3H]-5-HT]	–	–	Ki [2]: > 10000 nM
C[C@H](N)Cc1ccccc1 [beta-aminopropylbenzene]	–	–	Ki [2]: > 10000 nM
CN(C)CCCN1c2ccccc2CCc2ccccc21	–	–	Ki [7]: 102 nM
CC(C)[C@H](NC(=O)[C@H](CCC(=O)O)NC(=O)[C@H](Cc1ccccc1)NC(=O)[C@@H](C)NC(=O)[C@@H](N)Cc1ccc(O)cc1)C(=O)N[C@H](C(=O)NCC(N)=O)C(C)C [Tyr-D-Ala-Phe-Glu-Val-Val-GlyNH2]	–	2080 nM	–
Oc1ccc2c3c1OC1c4[nH]c5ccccc5c4CC4(O)[C@H](C2)N(CC2CC2)CCC314 (stereo not given in full) [NALTRINDOLE]	10.1 nM	–	–
O=C(CCCN1CCC2(CC1)C(=O)NCN2c1ccccc1)c1ccc(F)cc1 [8-[4-(4-fluorophenyl)-4-oxidanylidene-butyl]-1-phenyl-1,3,8-triazaspiro[4.5]decan-4-one]	–	–	Ki [3]: 4090 nM
CC[C@H](C)[C@H](NC(=O)[C@H](CCCN=C(N)N)NC(=O)[C@H](CCCN=C(N)N)NC(=O)[C@H](CC(C)C)NC(=O)[C@H](Cc1ccccc1)NC(=O)CNC(=O)CNC(=O)[C@@H](N)Cc1ccc(O)cc1)C(=O)O	0.2 nM	–	Ki [6]: 3.6 nM
COC(=O)[C@@H]1[C@H]2C[C@H]3c4[nH]c5ccccc5c4CCN3C[C@@H]2CC[C@@H]1O [yohimbic acid methyl ester]	–	–	Ki [8]: 642 nM
CN1CC[C@]23CCCC[C@H]2[C@H]1Cc1ccc(O)cc13 [CAS_5985-38-6]	–	0.3 nM	–
CC(C)C[C@H](NC(=O)[C@H](Cc1ccccc1)NC(=O)CNC(=O)CNC(=O)[C@@H](N)Cc1ccc(O)cc1)C(=O)N[C@@H](CCCN=C(N)N)C(=O)N[C@@H](CCCN=C(N)N)C(=O)N[C@@H](CCC(N)=O)C(=O)N[C@@H](Cc1ccccc1)C(=O)N[C@@H](CCCCN)C(=O)N[C@H](C(=O)N[C@H](C(=O)N[C@H](C(=O)O)[C@@H](C)O)C(C)C)C(C)C [Dynorphin B (1-13)]	0.3 nM	3 nM	–
